Measurements from US10442819B2, “Tricyclic compounds as inhibitors of mutant IDH enzymes” (Merck Sharp & Dohme Corp., priority 2014, dated 2019).

Chains of the proteins cited; added tags and fusions are not shown.
UniProt O75874, whole entry R132H: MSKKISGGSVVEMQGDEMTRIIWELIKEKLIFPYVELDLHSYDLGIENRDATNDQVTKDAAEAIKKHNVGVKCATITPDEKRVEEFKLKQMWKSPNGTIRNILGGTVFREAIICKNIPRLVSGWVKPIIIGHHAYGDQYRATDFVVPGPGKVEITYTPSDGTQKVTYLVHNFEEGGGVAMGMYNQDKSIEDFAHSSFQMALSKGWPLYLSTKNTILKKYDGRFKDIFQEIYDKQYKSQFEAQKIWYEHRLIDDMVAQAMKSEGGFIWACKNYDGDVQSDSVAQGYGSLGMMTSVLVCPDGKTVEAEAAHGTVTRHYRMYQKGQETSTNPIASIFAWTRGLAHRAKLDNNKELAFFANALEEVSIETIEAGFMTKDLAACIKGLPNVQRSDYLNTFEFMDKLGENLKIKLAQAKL

Target: R132H mutant IDH1 enzyme (Homo sapiens (Human), UniProt O75874, R132H)
Assay: R132H IDH1 Enzymatic Assay
Type: biochemical
Conditions: R132H mutant IDH1 enzyme 1.5 nM final; luminescence readout; read-out: IC50

| IC50 | SMILES |
| --- | --- |
| 107 nM | CO[C@H]1CC[C@H](C(=O)N2Cc3cccnc3Nc3ccc(-c4cn[nH]c4)cc32)CC1 [Example 357, 6-[(trans-4-methoxycyclohexyl)carbonyl]-8-(1H-pyrazol-4-yl)-6,11-dihydro-5H-pyrido[2,3-b][1,5]benzodiazepine] |
| 6 nM | CCO[C@H]1CC[C@@H](C(=O)N2Cc3cccnc3Nc3ccc(N4C[C@H]5CC[C@@H]4CO5)cc32)CC1(F)F [Example 333, 6-{[(1R,4S)-4-ethoxy-3,3-difluorocyclohexyl]carbonyl}-8-[(1R,4R)-2-oxa-5-azabicyclo[2.2.2]oct-5-yl]-6,11-dihydro-5H-pyrido[2,3-b][1,5]benzodiazepine] |
| 83 nM | Cn1ccc(-c2ccc3c(c2)N(C(=O)[C@H]2CC[C@@H](OCC(F)(F)F)CC2)Cc2cccnc2N3)n1 [Example 383, 8-(1-methyl-1H-pyrazol-3-yl)-6-{[cis-4-(2,2,2-trifluoroethoxy)cyclohexyl]carbonyl}-6,11-dihydro-5H-pyrido[2,3-b][1,5]benzodiazepine] |
| 105 nM | COCC1CCN(c2ccc3c(c2)N(C(=O)[C@H]2CC[C@H](OC)CC2)Cc2cccnc2N3)CC1 [Example 263, 6-[(trans-4-methoxycyclohexyl)carbonyl]-8-[4-(methoxymethyl)piperidin-1-yl]-6,11-dihydro-5H-pyrido[2,3-b][1,5]benzodiazepine] |
| 272 nM | CO[C@@H](C1CC1)[C@H]1CC[C@@H](C(=O)N2Cc3cccnc3Nc3ccc(N4CCOCC4)cc32)CC1 [Example 168, 6-({Cis-4-[(S)-cyclopropyl(methoxy)methyl]cyclohexyl}carbonyl)-8-morpholin-4-yl-6,11-dihydro-5H-pyrido[2,3-b][1,5]benzodiazepine] |
| 133 nM | CC(C)(O)[C@H]1CC[C@H](C(=O)N2Cc3cccnc3Nc3ccc(N4CCOCC4)cc32)CC1 [Example 521, [Trans-4-(2-hydroxypropan-2-yl)cyclohexyl][8-(morpholin-4-yl)-5,11-dihydro-6H-pyrido[2,3-b][1,5]benzodiazepin-6-yl]methanone] |
| 30 nM | COC1C[C@H]2CC[C@@H]1CN2c1ccc2c(c1)N(C(=O)[C@H]1CC[C@H](OC(C)C)CC1)Cc1cccnc1N2 (single isomer, unassigned) [Example 340] |
| 11 nM | CC(C)O[C@H]1CC[C@H](C(=O)N2Cc3cccnc3Nc3ccc(C4CCN(S(C)(=O)=O)CC4)cc32)CC1 [Example 528, {8-[1-(Methylsulfonyl)piperidin-4-yl]-5,11-dihydro-6H-pyrido[2,3-b][1,5]benzodiazepin-6-yl}[trans-4-(propan-2-yloxy)cyclohexyl]methanone] |
| 15 nM | CC(C)O[C@H]1CC[C@H](C(=O)N2Cc3cccnc3Nc3ccc(N4CC5CCC(C4)O5)cc32)OC1 [Example 160, (8-(8-oxa-3-azabicyclo[3.2.1]octan-3-yl)-5,11-dihydro-6H-benzo[b]pyrido[2,3-e][1,4]diazepin-6-yl)((2R,5S)-5-isopropoxytetrahydro-2H-pyran-2-yl)methanone] |
| 206 nM | CO[C@H]1CC[C@@H](C(=O)N2Cc3cccnc3Nc3ccc(C(=O)Nc4ccccc4F)cc32)CC1 [Example 510, N-(2-Fluorophenyl)-6-[(cis-4-methoxycyclohexyl)carbonyl]-6,11-dihydro-5H-pyrido[2,3-b][1,5]benzodiazepine-8-carboxamide] |
| 75 nM | CO[C@H]1CC[C@@H](C(=O)N2Cc3cccnc3Nc3ccc(N4CCOCC4)cc32)C[C@H]1C(F)(F)F (single isomer, unassigned) [Example 100] |
| 87 nM | CC(C)O[C@H]1CC[C@H](C(=O)N2Cc3cccnc3Nc3ccc(C4OCCOC4C)cc32)OC1 (single isomer, unassigned) [Example 24] |
| 663 nM | COC1CCC(C(=O)N2Cc3cccnc3Nc3ccc(N4CCC(C)(OC)CC4)cc32)CC1 (centres unmarked) [Example 200, 6-[(4-methoxycyclohexyl)carbonyl]-8-(4-methoxy-4-methylpiperidin-1-yl)-6,11-dihydro-5H-pyrido[2,3-b][1,5]benzodiazepine] |
| 5 nM | O=C(C1CCN(C2(C(F)(F)F)CCC2)CC1)N1Cc2cccnc2Nc2ccc(N3CC4CCC3CO4)cc21 (centres unmarked) [Example 346, 8-(2-oxa-5-azabicyclo[2.2.2]oct-5-yl)-6-({1-[1-(trifluoromethyl)cyclobutyl]piperidin-4-yl}carbonyl)-6,11-dihydro-5H-pyrido[2,3-b][1,5]benzodiazepine] |
| 144 nM | CC(C)O[C@H](C)[C@H]1CC[C@H](C(=O)N2Cc3cccnc3Nc3ccc(N4CCOCC4)cc32)CC1 [Example 173, [8-(Morpholin-4-yl)-5,11-dihydro-6H-pyrido[2,3-b][1,5]benzodiazepin-6-yl]{trans-4-[(1R)-1-(propan-2-yloxy)ethyl]cyclohexyl}methanone] |
| 280 nM | O=C(N1CCN(CC(F)(F)F)CC1)N1Cc2cccnc2Nc2ccc(N3CCOCC3)cc21 [Example 553, (8-Morpholino-5,11-dihydro-6H-benzo[b]pyrido[2,3-e][1,4]diazepin-6-yl)(4-(2,2,2-trifluoroethyl)piperazin-1-yl)methanone] |
| 396 nM | CO[C@H]1CC[C@H](C(=O)N2Cc3cccnc3Nc3ccc(C4COCCO4)cc32)CC1 (stereo partly drawn) [Example 10, 8-(1,4-Dioxan-2-yl)-6-[(trans-4-methoxycyclohexyl)carbonyl]-6,11-dihydro-5H-pyrido[2,3-b][1,5]benzodiazepine] |
| 546 nM | CO[C@@]1(C)CCC[C@@H](C(=O)N2Cc3cccnc3Nc3ccc(N4CCOCC4)cc32)CC1 [Example 134, 6-{[(1R,4S)-4-methoxy-4-methylcycloheptyl]car-bonyl}-8-morpholin-4-yl-6,11-dihydro-5H-pyrido[2,3-b][1,5]benzodiazepine] |
| 475 nM | CO[C@H]1CC[C@H](C(=O)N2Cc3cccnc3Nc3ccc(N4CCCCC4)cc32)CC1 [Example 226, 6-[(trans-4-methoxycyclohexyl)carbonyl]-8-piperidin-1-yl-6,11-dihydro-5H-pyrido[2,3-b][1,5]benzodiazepine] |
| 307 nM | CO[C@H]1CC[C@H](C(=O)N2Cc3cccnc3Nc3ccc(C4(O)CCCO4)cc32)CC1 (stereo partly drawn) [Example 362, 2-{6-[(trans-4-methoxycyclohexyl)carbonyl]-6,11-dihydro-5H-pyrido[2,3-b][1,5]benzodiazepin-8-yl}tetrahydrofuran-2-ol] |
| 277 nM | CO[C@H]1CC[C@H](C(=O)N2Cc3cccnc3Nc3ccc(C4(O)CCOCC4)cc32)CC1 [Example 511, [8-(4-Hydroxytetrahydro-2H-pyran-4-yl)-5,11-dihydro-6H-pyrido[2,3-b][1,5]benzodiazepin-6-yl](trans-4-methoxycyclohexyl)methanone] |
| 205 nM | COC1CCC(C(=O)N2Cc3cccnc3Nc3ccc(N4CC[C@@H](OC)C4)cc32)CC1 (single isomer, unassigned) [Example 206] |

| SMILES | IC50 |
| --- | --- |
| CCCO[C@H]1CC[C@H](C(=O)N2Cc3cccnc3Nc3ccc(N4[C@@H]5CC[C@H]4C[C@@H](OC)C5)cc32)CC1 [Example 314, 8-[(3-endo)-3-methoxy-8-azabicyclo[3.2.1]oct-8-yl]-6-[(trans-4-propoxycyclohexyl)carbonyl]-6,11-dihydro-5H-pyrido[2,3-b][1,5]benzodiazepine] | 95 nM |
